Results as given in patent US20080269248A1, “Tartrate and Malate Salts of Trans-1-((1R,3S)-6-Chloro-3-Phenylindan-1-Yl)-3,3-Dimethylpiperazine” (H. Lundbeck A/S, priority 2005, published 2008).

Test: solubility of the salts
Format: physicochemical

- solubility: 500 µg/mL
Substance: trans-1-((1R,3S)-6-chloro-3-phenylindan-1-yl)-3,3-dimethylpiperazinium L-tartrate [tartrate salt]
